This is a selection; strong and weak results do not stand in their true shares. Some of these compounds have results that are not shown, active ones among them. Calls of active or inactive are those of the source. Rule as the data show it: active = inhibition above about 21%; inactive = the rest.
The molecules below were run against Receptor-interacting serine/threonine-protein kinase 2 (Homo sapiens) (UniProt O43353) (assay: inhibitors of RIPK2 association with NOD2 – fluorescence, CHO cells, BLA complementation, primary screen (AID 624267;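 also: 0% = vehicle only and 100% = reference blocker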)). Conditions: CHO BLA complementation NOD2-RIPK2, CCF4 ratio; at 4.98 µM; active compounds read high.

By UniProt entry, the sequences of proteins in these tests, tags left out.
UniProt O43353, whole entry: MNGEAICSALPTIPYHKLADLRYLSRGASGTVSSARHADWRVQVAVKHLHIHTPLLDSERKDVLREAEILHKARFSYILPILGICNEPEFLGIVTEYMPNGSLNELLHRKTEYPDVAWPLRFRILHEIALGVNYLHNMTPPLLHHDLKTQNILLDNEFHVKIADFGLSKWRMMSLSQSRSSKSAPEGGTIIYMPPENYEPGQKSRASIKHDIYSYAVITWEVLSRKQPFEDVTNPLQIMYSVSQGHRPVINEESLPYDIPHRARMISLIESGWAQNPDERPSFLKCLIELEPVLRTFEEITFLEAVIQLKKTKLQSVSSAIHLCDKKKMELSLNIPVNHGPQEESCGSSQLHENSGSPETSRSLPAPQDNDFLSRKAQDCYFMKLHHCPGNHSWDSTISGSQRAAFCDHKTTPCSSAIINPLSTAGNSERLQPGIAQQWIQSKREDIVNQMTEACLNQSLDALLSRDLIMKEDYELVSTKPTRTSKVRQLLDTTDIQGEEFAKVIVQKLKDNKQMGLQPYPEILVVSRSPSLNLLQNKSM

SMILES | inhibition
O=C(OC1CN2CCC1CC2)C(CO)(c1ccccc1)c1ccccc1 (stereo unspecified) | inactive: 0.62%
C=C(C)C#CC(O)(C(=O)OC1CCN(C)CC1)c1ccccc1 (stereo unspecified) | inactive: -15.3%
COc1ccc(Br)c(C(=O)NCC2(N3CCCCC3)CCCCC2)c1 | inactive: -0.91%
O=C(OCCN1CCCC1)C(O)(c1ccccc1)c1ccccc1 | inactive: -3.58%
CC(C)Oc1ccc(C(=O)NCC2(N(C)C)CCCCC2)cc1 | inactive: -10.4%
CN(C)c1cccc(C(=O)NCC2(N(C)C)CCCCC2)c1 | inactive: 10.5%
CN(C)C1(CNC(=O)c2ccc(Br)cc2)CCCCC1 | inactive: -10.6%
COc1cc(C(=O)NCC2(N(C)C)CCCCC2)c([N+](=O)[O-])cc1OC | inactive: 10.6%
COc1ccc(Cl)cc1C(=O)NCC1(N(C)C)CCCCC1 | inactive: -2.7%
COc1cccc(C(=O)NCC2(N3CCCCC3)CCCCC2)c1 | inactive: -2.25%
O=C(NCC1(N2CCCCC2)CCCCC1)c1cccc(Cl)c1 | inactive: -9.07%
CN(C)C1CCCC1OC(=O)C(O)(c1ccccc1)c1ccccc1 (stereo unspecified) | inactive: 1.59%
CN(C)c1ccc(C(=O)NCC2(N(C)C)CCCCC2)cc1 | inactive: -14.2%
Cc1ccccc1C(=O)NCC1(N2CCCCC2)CCCCC1 | inactive: -3.81%
O=C(NCC1(N2CCCCC2)CCCCC1)c1cc(F)c(F)cc1Cl | inactive: 9.78%
C=CCN1CCN(CCOC(=O)C(O)(c2ccccc2)c2ccccc2)CC1 | inactive: -16.8%
COc1ccc(C(=O)NCC2(N(C)C)CCCCC2)cc1 | inactive: -0.15%
O=C(NCC1(N2CCCCC2)CCCCC1)c1cccc(Br)c1 | inactive: 7.19%
Cc1cc(C(=O)NCC2(N3CCCCC3)CCCCC2)ccc1[N+](=O)[O-] | inactive: 4.78%
CCN1CCCC(OC(=O)C2(O)c3ccccc3C=Cc3ccccc32)C1 (stereo unspecified) | inactive: -5.36%
O=C(NCC1(N2CCCCC2)CCCCC1)c1cc([N+](=O)[O-])ccc1Cl | inactive: -3.24%
CN1[C@@H]2CC[C@H]1CC(OC(=O)C(O)(c1ccccc1)c1ccccc1)C2 (stereo partly specified) | inactive: -13%
COc1cc(SC)ccc1C(=O)NCC1(N(C)C)CCCCC1 | inactive: 0.15%
CCN(CC)CC(C)C(C)OC(=O)C(O)(c1ccccc1)c1ccccc1 (stereo unspecified) | inactive: 2.28%
CC(C)N1C(=O)CC2(CCN(CCOC(=O)C(O)(c3ccccc3)c3ccccc3)CC2)C1=O | inactive: -0.12%
Cc1ccc(C(=O)NCC2(N3CCCCC3)CCCCC2)cc1 | inactive: -1.13%

— PubChem BioAssay AID624267 (The Scripps Research Institute Molecular Screening Center, 2012)
